RAD52 anneal inh = RAD52 DNA annealing inhibitors, primary screen, biochemical, FRET, single point, set 2; DNA repair protein RAD52 homolog (Homo sapiens), P43351; recombinant RAD52 DNA annealing, FRET fluorescence; inhibition, % at 18.7 µM; actives 0.46% (n = 360,000); AID 651710, 2012;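 active means every replicate showing at least 50% inhibition; inconclusive means mean inhibition at least 50% but not in every replicate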
UUG fidelity = alters start codon recognition fidelity in yeast; S. cerevisiae UUG-firefly luciferase reporter, luminescence/redox ratio; activity score, % at 18.7 µM; actives 0.13% (n = 350,000); AID 602363;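 active = replicate mean at a twofold rise or more, about +100% in these data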;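 also: firefly luciferase made from a UUG start codon reports start codon fidelity; reporter light over untreated wells divided by growth signal over untreated wells; some hits fall short of that in this replicate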
MLL AF4-AF9 inh = inhibitors of AF4 peptide binding to AF9, primary screen, biochemical, AlphaScreen, biotin-AF4 peptide, FLAG-AF9, single point. Protein AF-9 (Homo sapiens), P42568. inhibition, % at 10 µM. actives 0.47% (n = 350,000);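 active means every replicate reaching a set inhibition limit, whatever the replicate mean, cut at about 25% in these data; inconclusive means mean inhibition reaches that limit but some replicates miss it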;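 further: 0% = plate neutral control median and 100% = total signal loss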
RAD54 inh = inhibitors of human RAD54 branch migration, primary screen, biochemical, fluorescence, single point. DNA repair and recombination protein RAD54-like (Homo sapiens), Q92698. RAD54 Holliday junction branch migration, FAM/BHQ fluorescence. inhibition, % at 10.4 µM. actives 0.14% (n = 360,000). AID 602329, 2012;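 active means mean normalized replicate activity at least 40 and at least half of replicates scoring 40 or more; inconclusive means only one of the two criteria met; inactive means mean below 40 and under half of replicates reaching 40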;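 further: 0% = median of neutral control wells and 100% = median of positive control wells; inhibitors cause a drop in the FAM fluorescence signal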
E-sel inducer = E-selectin induction in HUVECs, primary screen, imaging, HUVEC, immunofluorescence imaging, single point. normalized: neutral wells 0, TNF-alpha wells 100. actives 0.37% (n = 260,000). activation, % at 7.58 µM. AID 686992, 2013;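 active means mean E-selectin-positive cell signal at least 10% of the positive control, reached in at least 60% of replicates, without over 20% cell loss; inconclusive means no rule given, readout overlaps actives, possibly toxicity-flagged; inactive means the rest, including those meeting only one limit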
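assay system = HUVEC, human umbilical vein endothelial cells | input = 3,000 HUVEC seeded per well | medium = EGM-2 growth medium on 0.1% gelatin-coated wells | dosing = one compound dose added by pin transfer | signal = immunofluorescence imaging | read-out basis = % PE-positive cells | control set = TNF-alpha, DMSO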
SIRT5 inh = SIRT5 desuccinylase inhibitors, primary screen, biochemical, fluorescence imaging, single point, set 5; NAD-dependent protein deacylase sirtuin-5, mitochondrial (Homo sapiens), Q9NXA8; Purified SirT5, succinyl-peptide AMC, trypsin-coupled fluorescence; inhibition, % at 15 µM; AID 652115, 2013; actives 1.1% (n = 330,000); in the data active means inhibition above about 15%; inconclusive means no clear call, values can overlap the other calls
Rad54 DNA ctr = DNA binding of candidate compounds, dose response, artefact control for RAD54 inhibitor project, biochemical, fluorescence polarization, cherry-pick. Acridine orange-DNA displacement, 20 min. actives 8% (n = 460). AC50, µM (doses to about 35 µM), for inactives: at the highest dose activity change, negative = DNA binding. shares compounds with RAD54 inh. AID 651673, 2012;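 active means signal drop giving an AC50 within twice the top valid tested concentration of each sample, actives reach about 35 µM in these data; inactive means activity opposite to expected, plus the rest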;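 further: polarization loss reports compound binding to salmon sperm DNA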
RAD52 DNA ctr = DNA-binding compounds via dye displacement, dose response, artefact control for RAD52 inhibitor project, biochemical, fluorescence polarization, cherry-pick; Salmon sperm DNA/acridine orange FP displacement; actives 8% (n = 1,000); AC50, µM; AID 652128, 2013; shares compounds with RAD52 anneal inh;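 active means fitted half-maximal concentration for signal loss at or below twice the highest dose tested, in every separate run, actives reach about 64 µM in these data; inconclusive means runs disagree, or flat partial signal loss, or poor fit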
* = called active by the depositor; i = inactive; ? = inconclusive; / = no result. Only some compounds are listed: those with a hit (about 1.8% of all), similar ones and a draw of the others.

SMILES	RAD52 anneal inh	UUG fidelity	MLL AF4-AF9 inh	RAD54 inh	E-sel inducer	SIRT5 inh	Rad54 DNA ctr	RAD52 DNA ctr
CN(C)CCNc1ncnc2c1sc1nc(N3CCCC3)c3c(c12)CC(C)(C)OC3	88*	-2	11	97*	/	-2	-1%	i
C/C=C/c1ccc([C@@H]2[C@@H](CO)N3CCCCN(S(=O)(=O)c4cccs4)C[C@@H]23)cc1	-7	10	-5	3	0	9	/	/
COc1ccc2c3c([nH]c2c1)[C@@H](CO)N(C(=O)CN(C)C)CC31CN(C(=O)c2cccnc2)C1	8	/	-2	/	0	/	/	/
CCOc1ccc(Nc2c3ccccc3nc3ccccc23)cc1	85*	-22	37*	106*	0	0	27µM*	i
Cn1c(NCCN2CCCC2)nc2cc(-c3cccc(C(F)(F)F)c3)sc2c1=O	40	-7	/	25	/	-3	/	/
COc1cccc(CNc2nc3cc(-c4cccc(OC)c4)sc3c(=O)n2C)c1	-13	-12	-2	-5	0	0	/	/
Cn1c(NCCN2CCCC2)nc2cc(-c3ccccc3)sc2c1=O	52*	13	2	?	0	/	-20%	i
COc1cccc(-c2cc3nc(NCCN4CCCC4)n(C)c(=O)c3s2)c1	89*	-6	3	70*	0	6	-14%	i
COc1cc(C(=O)NC2CCN(C)CC2)ccc1Nc1ncc2c(n1)N(C1CCCCC1)CCC(=O)N2C	97*	-14	1	78*	0	/	13%	i
Cc1ccc2nc(Cl)c3cc(C(=O)NCCCN4CCCC4)sc3c2c1	79*	1	9	79*	1	-6	-20%	48µM*
COc1ccc(Cc2c(-c3ccc(C)cc3)nc3c(C)cc(Br)cn23)c(C)c1	-75	-1	-2	-10	18	2	/	/
COc1ccc(Cc2c(-c3ccc(OC)c(OC)c3)nc3c(C)cc(Br)cn23)c(C)c1	52*	1	3	60*	0	/	-8%	i
COCC#Cc1ccc([C@H]2[C@@H](CO)N3C(=O)CN(C(=O)Nc4ccc(F)cc4)C[C@@H]23)cc1	-11	/	-3	/	0	-2	/	/
CCOc1cc2[nH]c(=S)n(Cc3ccc(C(=O)NCCCN(CC)CC)cc3)c(=O)c2cc1OCC	67*	-12	9	51*	0	-3	-13%	i
CCOc1cc2[nH]c(=S)n(Cc3ccc(C(=O)NCCCOC)cc3)c(=O)c2cc1OCC	-6	0	0	4	0	3	/	/
N=c1c(C(=O)NCCN2CCOCC2)cc2c(=O)n3ccccc3nc2n1CCCN1CCOCC1	77*	-22	0	57*	/	-9	7%	i
CNc1ncnc2sc(-c3ccccc3)cc12	-7	-14	-2	0	2	-3	/	/
CN(C)CCNc1ncnc2sc(-c3ccccc3)cc12	59*	-4	8	67*	0	1	-10%	i
Cc1noc(C)c1NC(=O)N[C@H]1CC[C@@H](CC(=O)N2CCN(C)CC2)O[C@@H]1CO	-2	/	-2	-2	0	-1	/	/
COCC(=O)Nc1ccc2c(c1)[C@@H]1C[C@@H](CC(=O)N3CCOCC3)O[C@H](CO)[C@@H]1O2	-13	/	0	-2	1	-1	/	/
CN(C)CCNC(=O)c1cccc(-c2cnc3c(NC=O)cc(-c4ccc(S(C)(=O)=O)cc4)cn23)c1	96*	-2	9	65*	0	/	-17%	i

Marked active in RAD52 DNA ctr, among the entries above:
compound	RAD52 anneal inh	UUG fidelity	MLL AF4-AF9 inh	SIRT5 inh	Rad54 DNA ctr	RAD52 DNA ctr
Cc1ccc2nc(Cl)c3cc(C(=O)NCCCN4CCCC4)sc3c2c1	79*	1	9	-6	-20%	48µM*

Sorted by molar mass (rising): some entries from above.
SMILES	RAD52 anneal inh	UUG fidelity	MLL AF4-AF9 inh	RAD54 inh	E-sel inducer	SIRT5 inh	Rad54 DNA ctr	RAD52 DNA ctr
COc1cccc(CNc2nc3cc(-c4cccc(OC)c4)sc3c(=O)n2C)c1	-13	-12	-2	-5	0	0	/	/
C/C=C/c1ccc([C@@H]2[C@@H](CO)N3CCCCN(S(=O)(=O)c4cccs4)C[C@@H]23)cc1	-7	10	-5	3	0	9	/	/
CN(C)CCNC(=O)c1cccc(-c2cnc3c(NC=O)cc(-c4ccc(S(C)(=O)=O)cc4)cn23)c1	96*	-2	9	65*	0	/	-17%	i

Assay outcomes (PubChem BioAssay)
